System: cervical adenocarcinoma HeLa cells
Assay: Cell viability MTT assay, HeLa
Assay type: cell-based
Conditions: Homo sapiens, 48 h, read-out: IC50 values ± SD in MTT assay

O=c1cc(-c2ccc(O)c(O)c2)oc2cc(O)cc(O)c12 [luteolin, reference compound]
IC50: ~21.7 µM

Reference: publication PMC10512030, “Prolidase-proline oxidase axis is engaged in apoptosis induction by birch buds flavonol santin in endometrial adenocarcinoma cell line” (Frontiers in Molecular Biosciences, 2023)
